# From PubChem BioAssay AID1224865 (Sanford-Burnham Center for Chemical Genomics, 2016)
# Protein sequences, listed by entry. Tags and fused reporters are not part of them.
# UniProt P41235, whole entry: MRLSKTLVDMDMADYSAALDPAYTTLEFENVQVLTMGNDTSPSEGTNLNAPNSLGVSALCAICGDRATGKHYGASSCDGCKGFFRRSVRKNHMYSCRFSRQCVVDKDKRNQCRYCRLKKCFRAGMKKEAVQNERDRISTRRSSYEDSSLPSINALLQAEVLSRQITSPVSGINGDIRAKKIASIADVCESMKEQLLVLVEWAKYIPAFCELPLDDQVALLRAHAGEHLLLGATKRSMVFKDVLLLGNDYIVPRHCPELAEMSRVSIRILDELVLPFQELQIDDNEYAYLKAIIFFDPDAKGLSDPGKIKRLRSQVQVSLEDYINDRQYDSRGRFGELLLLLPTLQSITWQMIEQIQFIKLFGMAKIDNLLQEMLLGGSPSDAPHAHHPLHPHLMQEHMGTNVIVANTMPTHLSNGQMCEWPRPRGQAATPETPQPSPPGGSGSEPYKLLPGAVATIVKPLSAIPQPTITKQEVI
# This is a selection; strong and weak results do not stand in their true shares. Activity calls are given as the source filed them. Rule as the data show it: active = activity change above about 30% (passing the limit was not always enough); inactive = the rest.
# Molecular target: Hepatocyte nuclear factor 4-alpha (Homo sapiens) (UniProt P41235)
# Test: HNF4-alpha DNA association modulation – biochemical, fluorescence polarization, FITC-DNA, primary screen (AID 1224865)
# Settings: HNF4a-FITC DNA binding, 1 h, at 10 µM, hits give high values
row,SMILES,activity change
1,COc1ccccc1OP(C)(=O)Nc1ccc(C)c(C)c1 (stereo unspecified),inactive: 1.15%
2,CCOP(=O)(Nc1ccccc1)OCC,inactive: 1.33%
3,Cc1cc(SC(NC(=O)c2ccc(F)cc2)C(Cl)(Cl)Cl)ncn1 (stereo unspecified),inactive: 4.49%
4,COc1ccc(OP(C)(=O)Nc2ccccc2Br)cc1 (stereo unspecified),inactive: 0.53%
5,CCCC1OP(N)(=O)OCC1CC (stereo unspecified),inactive: -3.16%
6,O=C(O)c1ccccc1[As](=O)(O)O,inactive: -8%
7,CC(=O)Nc1ccc([As](=O)(O)O)cc1,inactive: 2.72%
8,Cc1cc(C)cc(OP(C)(=O)Nc2cccc(C(F)(F)F)c2)c1 (stereo unspecified),inactive: 0.22%
9,CN(C)P(=O)(N(C)C)n1c(Nc2ccccc2)nnc1-c1ccccc1,inactive: -4.03%
10,O=P(Nc1nc2ccc(Cl)cc2s1)(c1ccccc1)c1ccccc1,inactive: 2.11%
11,O=C1C(O)=C([N+](=O)[O-])C(=O)C(O)=C1[N+](=O)[O-],inactive: -37.9%
12,COc1ccccc1OP(C)(=O)Nc1ccc(C)cc1C (stereo unspecified),inactive: -0.19%
13,CP(=O)(Nc1ccccn1)Oc1ccccc1 (stereo unspecified),inactive: 1.49%
14,CCc1ccc(OP(C)(=O)O)cc1,inactive: -3.54%
15,O=[N+]([O-])C1C(O)C(O)C([N+](=O)[O-])C(O)C1O (stereo unspecified),inactive: 0.45%
16,CC(C)CC(=O)NC(Sc1ccc(Cl)cc1)C(Cl)(Cl)Cl (stereo unspecified),inactive: -1.79%

row,SMILES,activity change
1,O=[N+]([O-])c1cc([N+](=O)[O-])c(Nc2ccccn2)c([N+](=O)[O-])c1,inactive: -3.73%
2,Cc1c(NP(C)(=O)Oc2ccc(C(C)C)cc2)c(=O)n(-c2ccccc2)n1C (stereo unspecified),inactive: 2.52%
3,Nc1cc(N)c2nonc2c1[N+](=O)[O-],inactive: -0.09%
4,O=C(NC(Sc1ccncn1)C(Cl)(Cl)Cl)c1ccccc1 (stereo unspecified),inactive: 1.46%
5,Oc1ccccc1CNc1ccccn1,inactive: -3.09%
6,Cc1ccc(OP(=O)(Nc2nccs2)Oc2ccc(C)cc2)cc1,inactive: 3.57%
7,COc1ccc(OP(C)(=O)Nc2ccccn2)cc1 (stereo unspecified),inactive: -2.32%
8,COc1ccccc1OP(=O)(Nc1ccc(C)cn1)Oc1ccccc1OC,inactive: -3.31%
9,Clc1ccc(Cl)c(NC2=NCC(CBr)S2)c1 (stereo unspecified),inactive: -2.5%
10,CN(C)CCOC(=O)C(O)(c1ccccc1)C1CCCC1 (stereo unspecified),inactive: 0.69%
11,CN1CCCC(OC(=O)C(c2ccccc2)c2ccccc2)C1 (stereo unspecified),inactive: -0.49%
12,NC(=O)c1cc([N+](=O)[O-])cc([N+](=O)[O-])c1N,inactive: 1.23%
13,Cc1ccc(N/C(=N/P(=O)(N2CCOCC2)N2CCOCC2)N2CCOCC2)cc1,inactive: 0.89%
14,COc1ccccc1OP(C)(=O)Nc1ccc(Br)cc1 (stereo unspecified),inactive: 3.58%
15,CN(C(=O)Cc1ccc(Cl)c(Cl)c1)[C@H]1CCCC[C@H]1N1CCCC1,inactive: -2.69%
